Experimental data taken from US7963935B2, “Microprojection array having a beneficial agent containing coating” (Alza Corporation, priority 2001, dated 2011).

Assay: Dry film/coating on titanium foil: inspection and redissolution/rehydration in water
Type: physicochemical
Conditions: film dried on titanium foil at room temperature about 1 hour
Experimental: In order to test the ability of aqueous albumin solutions to form solid coatings on titanium microprojections, a coated microprojection array was prepared in the following manner. […] To aliquots of these solutions, fluorescein, a marker added for subsequent visualization of the dried coating, was added at a final concentration of 1 millimolar. A 1-microliter drop of this solution was spread on titanium foil having an area of about one centimeter square. The solution was allowed to dry at room temperature for about 1 hour.
A coated microprojection array was prepared in the following manner. […] To this suspension, fluorescein, a marker added for subsequent visualization, was added at a final concentration of 1 millimolar. A 1 microliter drop of this suspension was spread on titanium foil having an area of 1 square centimeter and allowed to dry at room temperature for about an hour.
To 50 microliters of this solution, 50 microliters of a 40 percent by weight aqueous solution of lidocaine HCl was added. A control solution containing no albumin was also prepared. 1-microliter drops of these solutions were spread on titanium foil having an area of approximately 1 square centimeter. The solutions were allowed to air dry at room temperature for about 1 hour.

## human albumin: Human albumin (Sigma, Fraction V) utilized as a model biocompatible carrier
  redissolution of the dry film/coating in water: fast and complete
